Assay: clinical study: prevention of the neurotoxicity of oxaliplatin by calcium and magnesium infusion (103 treatments)
Conditions: group of patients without calcium or magnesium

N[C@@H]1CCCC[C@H]1N.O=C([O-])C(=O)[O-].[Pt+2] (relative stereo) [oxaliplatin, 1,2-diamine cyclohexane (trans-1)oxalatoplatinum]
discontinuations due to toxic causes: 40%

From patent US20050148661A1 (priority 2002, published 2005)
